# Measured values reported in patent US5981520A, “Piperazino derivatives as neurokinin antagonists” (Schering Corporation, priority 1998, dated 1999).
# By UniProt entry, the sequences of proteins in these tests, tags left out.
# UniProt P21452, whole entry: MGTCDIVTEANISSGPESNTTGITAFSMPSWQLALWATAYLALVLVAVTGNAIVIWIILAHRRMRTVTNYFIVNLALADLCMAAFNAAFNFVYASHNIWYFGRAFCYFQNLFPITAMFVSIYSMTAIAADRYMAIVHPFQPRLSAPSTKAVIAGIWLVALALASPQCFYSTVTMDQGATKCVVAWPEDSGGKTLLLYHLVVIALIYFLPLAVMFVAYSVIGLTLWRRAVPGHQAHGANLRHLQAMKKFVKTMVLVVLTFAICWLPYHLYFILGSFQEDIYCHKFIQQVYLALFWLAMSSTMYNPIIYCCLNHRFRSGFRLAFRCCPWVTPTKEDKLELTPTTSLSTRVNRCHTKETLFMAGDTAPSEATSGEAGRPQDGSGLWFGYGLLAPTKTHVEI
# UniProt P25103, whole entry: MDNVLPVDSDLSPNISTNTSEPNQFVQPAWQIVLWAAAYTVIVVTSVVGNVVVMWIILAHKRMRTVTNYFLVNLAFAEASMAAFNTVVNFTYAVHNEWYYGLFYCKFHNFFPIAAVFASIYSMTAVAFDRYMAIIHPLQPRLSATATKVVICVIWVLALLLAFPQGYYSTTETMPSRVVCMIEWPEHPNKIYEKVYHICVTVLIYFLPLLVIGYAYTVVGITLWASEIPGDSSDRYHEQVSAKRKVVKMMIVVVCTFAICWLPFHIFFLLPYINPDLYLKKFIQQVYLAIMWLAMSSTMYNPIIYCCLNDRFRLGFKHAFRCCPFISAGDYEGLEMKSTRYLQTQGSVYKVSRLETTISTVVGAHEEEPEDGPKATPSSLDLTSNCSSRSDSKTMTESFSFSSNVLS
# Experiments:
# [1] = molecular target: T1, human neurokinin 2 (NK2) receptor (Homo sapiens, UniProt P21452); assay: Neurokinin receptor binding assay, NK2 ([3H]-Neurokinin A, CHO membranes); settings: racemic compounds except specifically defined enantiomers
# T1 construct: expressed in transfected cells; host or cells: Chinese Hamster ovary (CHO) cells
# Protocol: (§1) Chinese Hamster ovary (CHO) cells transfected with the coding regions for the human neurokinin 1 (NK1) of the human neurokinin 2 (NK2) receptors are grown in Dulbecco's minimal essential medium supplemented with 10% fetal calf serum, 0.1 mM non-essential amino acids, 2 mM glutamine, 100 units/ml of penicillin and streptomycin, and 0.8 mg of G418/ml at 37° C. in a humidified atmosphere containing 5% CO2.
# (§2) Cells are harvested by centrifugation and washed in RPMI media at […] for 5 minutes. The pellet is resuspended inTris-HCl (pH7.4) containing 1 uM phosphoramidon and 4 ug/ml of chymostatin at a cell density of 30×10^6 cells/ml. The suspension is then homogenized in a Brinkman Polytron (setting 5) for 30-45 seconds. The homogenate is centrifuged at 800×g for 5 min at 4° C. to collect unbroken cells and nuclei. The supematant is centrifuged in a Sorvall RC5C at 19,000 rpm ([…]) for 30 min at 4° C. The pellet is resuspended, an aliquot is removed for a protein determination (BCA) and washed again. The resulting pellet is stored at -80° C.
# (§3) Binding is initiated by the addition of 100 μl of membrane (10-20 μg) containing the human NK-1 or NK-2 receptor in a final volume of 200 μl. After 40 minutes at room temperature, the reaction is stopped by rapid filtration onto Whatman GF/C filters which have been presoaked in 0.3% polyethylenimine. Filters are washed 2 times with 3 ml of 50 mM Tris-HCl (pH7.4).
# [2] = molecular target: T2, human neurokinin 1 (NK1) receptor (Homo sapiens, UniProt P25103); assay: Neurokinin receptor binding assay, NK1 ([3H]-Substance P, CHO membranes); settings: racemic compounds except specifically defined enantiomers
# T2 construct: expressed in transfected cells; host or cells: Chinese Hamster ovary (CHO) cells
# Protocol: as §1, §2
# as §3, with “Filters are washed 2 times with 3 ml of 50 mM Tris-HCl (pH7.4).” left out
Ki [1],Ki [2],Structure (SMILES)
4.3 nM,–,Cc1cc(C)cc(C(=O)N2CCN(C(=O)CNC3CCN(Cc4ccccc4)CC3)C(c3ccc(Cl)c(Cl)c3)C2)c1 (stereo not drawn)
11.4 nM,4.9 nM,O=C(c1cc(C(F)(F)F)cc(C(F)(F)F)c1)N1CCN(C(=O)CNC2CCN(Cc3ccccc3)CC2)C(c2ccc(Cl)c(Cl)c2)C1 (stereo not drawn)
> 66 nM,–,"Cc1cc(C)cc(C(=O)N2CCN(C(=O)CNC3CCN(Cc4ccccc4)CC3)C(c3ccc(Cl)c(Cl)c3)C2)c1 (single isomer, unassigned)"
355 nM,2.2 nM,"O=C(c1cc(C(F)(F)F)cc(C(F)(F)F)c1)N1CCN(C(=O)CNC2CCN(Cc3ccccc3)CC2)C(c2ccc(Cl)c(Cl)c2)C1 (single isomer, unassigned)"
